BindingDB's records for doi:10.1021/jm0506625 (Washington University, 2005)

Molecular target: T1, Caspase-6 (Homo sapiens, UniProt P55212)
T1 sequence (P55212 whole entry): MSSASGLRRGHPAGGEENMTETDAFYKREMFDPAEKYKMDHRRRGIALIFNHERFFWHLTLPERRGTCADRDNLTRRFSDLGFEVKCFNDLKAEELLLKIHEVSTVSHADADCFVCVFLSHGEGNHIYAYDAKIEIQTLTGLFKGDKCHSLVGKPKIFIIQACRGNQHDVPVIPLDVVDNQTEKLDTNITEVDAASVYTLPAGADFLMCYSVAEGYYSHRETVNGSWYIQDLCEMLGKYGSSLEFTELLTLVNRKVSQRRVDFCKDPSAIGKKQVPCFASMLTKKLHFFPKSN
Assay: Caspase Inhibition Assay
Experimental: The substrate peptides terminating in AMC are processed by caspases with or without inhibitors. The amount of AMC released was determined by using a Victor microplate fluorometer (Perkin-Elmer Life Sciences, Boston, MA) at excitation and emission wavelengths of 355 and 460 nm. Compounds were tested in duplicate, and IC50 curves were calculated for all inhibitors. Final IC50s were the average of three independent experiments.

- IC50: 60.5 nM
SMILES: CCC(C)[C@H](NC(=O)[C@H](CCC(=O)O)NC(=O)[C@@H](NC(C)=O)C(C)C)C(=O)N[C@H](C=O)CC(=O)O (stereo partly drawn) [(4S)-4-{[(1S)-1-{[(2S)-1-carboxy-3-oxopropan-2-yl]carbamoyl}-2-methylbutyl]carbamoyl}-4-[(2S)-2-acetamido-3-methylbutanamido]butanoic acid]
